Source: US7795278B2 (sanofi-aventis Deutschland GmbH, priority 2004, dated 2010)

By UniProt entry, the sequences of proteins in these tests, tags left out.
UniProt P09874, whole entry: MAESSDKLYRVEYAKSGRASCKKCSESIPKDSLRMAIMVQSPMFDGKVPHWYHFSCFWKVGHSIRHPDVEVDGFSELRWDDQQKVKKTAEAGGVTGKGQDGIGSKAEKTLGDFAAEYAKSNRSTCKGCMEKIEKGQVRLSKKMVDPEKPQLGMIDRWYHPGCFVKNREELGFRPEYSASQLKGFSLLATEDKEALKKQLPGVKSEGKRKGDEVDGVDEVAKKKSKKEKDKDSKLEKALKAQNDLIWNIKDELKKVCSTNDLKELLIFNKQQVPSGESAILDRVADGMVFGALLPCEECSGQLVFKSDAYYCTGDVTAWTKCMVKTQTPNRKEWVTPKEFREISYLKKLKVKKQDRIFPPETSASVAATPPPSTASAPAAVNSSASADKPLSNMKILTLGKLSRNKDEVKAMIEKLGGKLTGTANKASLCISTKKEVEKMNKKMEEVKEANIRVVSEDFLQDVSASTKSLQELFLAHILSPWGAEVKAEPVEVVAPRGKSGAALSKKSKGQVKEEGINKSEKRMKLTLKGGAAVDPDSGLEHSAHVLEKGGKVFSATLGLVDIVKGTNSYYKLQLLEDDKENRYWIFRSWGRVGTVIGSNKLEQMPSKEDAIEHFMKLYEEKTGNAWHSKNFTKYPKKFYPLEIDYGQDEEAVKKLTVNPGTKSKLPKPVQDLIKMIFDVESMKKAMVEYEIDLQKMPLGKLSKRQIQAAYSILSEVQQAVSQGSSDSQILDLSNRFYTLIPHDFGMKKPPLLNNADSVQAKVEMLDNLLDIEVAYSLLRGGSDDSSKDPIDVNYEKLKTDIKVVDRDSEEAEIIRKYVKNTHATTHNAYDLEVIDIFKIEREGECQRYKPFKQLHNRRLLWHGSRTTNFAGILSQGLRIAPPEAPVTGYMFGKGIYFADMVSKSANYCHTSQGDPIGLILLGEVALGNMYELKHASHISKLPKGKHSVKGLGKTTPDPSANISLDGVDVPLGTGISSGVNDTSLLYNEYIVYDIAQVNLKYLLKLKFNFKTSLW

biological target: recombinantly expressed human PARP-1 enzyme (Homo sapiens, UniProt P09874); test: PARP enzyme assay (half-maximum inhibitor concentration); type: biochemical; conditions: DNA-activated PARP-1, 200 μM NAD, tritium-labeled NAD incorporation, room temperature, 1 hour, pH 8.0
Description: Pharmacological Investigations PARP Enzyme Assay
The half-maximum inhibitor concentration is determined by incubating the substances to be tested with the DNA-activated, recombinantly expressed and purified PARP-1 enzyme. Specifically, various concentrations of the test substance are incubated in 50 μl of reaction solution, which contains 50 mM Tris, 5 mM MgCl2, 1 mM DTT, 200 μM NAD, 0.1 mCi/ml tritium-labeled NAD, 0.1 mg/ml DNA, 0.1 mg/ml histones, 2 μg/ml recombinantly expressed human PARP-1 enzyme, pH=8.0, at room temperature for 1 hour. The reaction is stopped by adding 150 μl of 20% trichloroacetic acid, and the radiolabeled protein constituents are precipitated. After incubation on ice for 10 minutes, the labeled, insoluble constituents are separated off through a glass fiber filter and, after washing with 20% trichloroacetic acid three times, the radioactivity incorporated by the PARP-1 enzyme is measured by radioluminescence. Consideration of the incorporation rates determined in this way as a function of the concentration of the test substance results in the half-maximum inhibitor concentration (IC50) as the concentration of the test substance which reduces the incorporation rate to half the maximum value attainable (incubation without inhibitor).
IC-50 values were determined in this way for the following compounds: […]

| Compound | IC50 [nM] |
| --- | --- |
| N-[2-(4-nitrophenyl)ethyl]-5-(1-oxo-1,2,5,6,7,8-hexahydroisoquinolin-4-yl)nicotinamide [Example 29] | 560 |
| N-[2-(4-pyridinecarbamoylaminoethyl)]-5-(1-oxo-1,2,5,6,7,8-hexahydroisoquinolin-4-yl)-nicotinamide [Example 31] | 4800 |
| N-[(4-nitrobenzoylamino)methyl]-5-(1-oxo-1,2,5,6,7,8-hexahydroisoquinolin-4-yl)nicotinamide [Example 30] | 3350 |
| CN1CCCC1CCNCc1ccc(-c2c[nH]c(=O)c3c2CCCC3)o1 (stereo not shown) [Example 60, 4-(5-{[2-(1-methylpyrrolidin-2-yl)-ethylamino]methyl}furan-2-yl)-5,6,7,8-tetrahydro-2H-isoquinolin-1-one] | 560 |
